Experimental data taken from patent US10201563B2, “Method of treating sinusitis, including chronic sinusitis” (SINOX PHARMA, INC., priority 2010, dated 2019).

Assay: Gargle and nasal spray with ClO2 solution in people with sore throat, cold or sinusitis

## chlorine dioxide
Allergic or non allergic chronic sinusitis
  familiar sinusitis symptoms (headache, itchy nose, stuffed passages): gone or greatly reduced in a matter of minutes
Clogged nasal passages and apparent infection, in most instances without antibiotics, antifungal agents and/or surgery
  major symptoms of chronic sinusitis: promptly relieved
